Source: PubChem
B2AR arrestin: agonists driving beta-arrestin recruitment to human beta2-adrenergic receptor; P07550; beta-arrestin recruitment to beta2AR, cell-based reporter; Potency, µM (series often up to 46.1 µM), usual class: activators; actives 0.02% (n = 330,000); note: nearly all actives have a fitted effect of over 65% in size
Coupling enz: coupling enzyme interference in Giardia aldolase counter-screen; coupling enzyme system counterscreen, AmpLite Red fluorescence; activity change, negative = inhibition, % at 58.2 µM, hits read low; actives 0.67% (n = 290,000); AID 2472; in the data active = activity change below about -30%
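Counterscreen lacking aldolase: glyceraldehyde-3-phosphate coupling-enzyme reagent preincubated 10 min at RT with compound (at 57.5 uM final), then substrate/coupling system with AmpLite Red added; fluorescence read at 525/598 nm after 20 min RT.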
GALK inh: inhibitors of human galactokinase | actives 0.007% (n = 270,000) | Potency, µM (top dose mostly 57.5 µM), actives largely listed as inhibitors | P51570 | Purified GALK, Kinase-Glo residual ATP luminescence
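GALK at 5 nM final was combined with compound, 35 uM ATP and 100 uM galactose in HEPES pH8.0 with MgCl2 and DTT. The reaction ran one hour at room temperature before luminescent ATP detection.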
Giardia kill: Giardia lamblia killing; Giardia lamblia trophozoite viability; activity change, % at 7.66 µM, hits read low; actives 0.15% (n = 340,000); AID 540267; in the data active = activity change below about -80%; inconclusive = between about -30% and that limit;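 note: parasites exposed to compound for two days anaerobically before the ATP read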
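Luminescence from cellular ATP indicates surviving trophozoites (100 cells/well) following 48 hrs anaerobic compound treatment at 37 deg C; signal develops 15-30 min at room temperature.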
uPA generation: inhibitors of cell surface uPA generation; cell surface uPA generation assay, qHTS; Potency, µM (titrated, usually from 38.3 µM), hits mostly inhibitors; actives 0.31% (n = 330,000); active = well fitted inhibition curve with a large enough effect; inconclusive = small, poorly fitted or top-dose-only effect; inactive = no such curve, though single readings can be large or run the other way; tested in mouse RAW 264.7 cells; note: nearly all actives have a fitted effect of over 55% in size
miR-21 reporter: raises the signal of a miR-21 reporter | HeLa miR-21 FLuc reporter, luciferase, 48 h | Potency, µM (highest dose often 38.3 µM) | 340,000 tested, under 10 active; active = well fitted rising curve with a large enough effect; inconclusive = small, poorly fitted or top-dose-only effect; inactive = no such curve, though single readings can be large or run the other way;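 note: miR-21 action dims this reporter so a rising signal means less miR-21 action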
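Compounds were titrated across several concentrations (up to approximately 40 uM) and incubated 48 hours with HeLa miR-21-FLuc reporter cells (miR-21 target sequence downstream of FLuc, endogenous miR-21). Readout was firefly luciferase luminescence after lytic detection reagent.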
A number is an active result; – = inactive; ? = inconclusive; · = no result given; ! = repeats disagree. Most compounds without a hit are left out; they make up all but 0.92% or so of the library. Unless noted, calls come from the whole dose curve; as a rule, active = well fitted curve in the direction sought with a large enough effect; inconclusive = small, poorly fitted or top-dose-only effect, or another doubt; inactive = no such curve, though single readings can be large; an effect the other way counts as inactive or inconclusive.

SMILES	B2AR arrestin	Coupling enz	GALK inh	Giardia kill	uPA generation	miR-21 reporter
Cc1ccc(NC(=O)c2cnc(SCC(=O)N3CCCc4ccccc43)n(C)c2=O)cc1	·	·	·	·	·	–
COc1cccc(NC(=O)C2CCCN2S(=O)(=O)c2ccc3nc(-c4ccccc4)[nH]c3c2)c1 (stereo unspecified)	·	·	·	·	·	–
COc1ccc(NC(=O)c2cccnc2)c([N+](=O)[O-])c1	–	–	–	–	–	–
Cc1ccc(NC(=O)c2cccnc2)c([N+](=O)[O-])c1	–	–	–	–	3.5µM	–
CC(NC(=O)/C(C#N)=C/c1ccco1)c1ccccc1 (stereo unspecified)	–	–	–	–	–	–
CC(NC(=O)/C(C#N)=C/c1ccc([N+](=O)[O-])o1)c1ccccc1 (stereo unspecified)	–	-36	–	–	–	?
Cc1ccc(S(=O)(=O)c2ncccc2[N+](=O)[O-])cc1	–	–	–	?	4µM	?
Cc1ccc(S(=O)(=O)c2ncccc2N)cc1	–	–	–	–	–	–
CC(=O)c1ccc(N2CCN(C(=O)CS(=O)(=O)c3cccc4nsnc34)CC2)cc1	·	·	·	·	·	–
COc1ccc(CNc2ccc3cn[nH]c3c2)c(OC)c1OC	–	-47	–	–	–	–
CCOc1cc(CNc2ccc3cn[nH]c3c2)ccc1OC	–	-55	–	–	–	–
Nc1ccc(N)c(C(=O)O)c1	–	-34	–	–	–	–
CC(OC(=O)c1cccc(S(=O)(=O)N2CCN(C)CC2)c1)C(=O)Nc1ccc(C(N)=O)cc1 (stereo unspecified)	–	·	·	–	–	·
CCc1ccc(NC(=O)C(C)OC(=O)c2cccc(S(=O)(=O)N3CCc4ccccc4C3)c2)cc1 (stereo unspecified)	–	-45	–	–	–	–
C[C@](N)(Cc1ccc(O)c(O)c1)C(=O)O	–	-58!	·	–	–	–
O=C(/C=C/c1ccc(O)c(O)c1)c1ccc(O)cc1O	·	–	·	·	·	·
NC(Cc1ccc(O)c(O)c1)C(=O)O (stereo unspecified)	·	-30	·	·	·	·
COC(=O)C(N)Cc1ccc(O)c(O)c1 (stereo unspecified)	–	–	–	–	–	–
COc1cc(/C=C/C(=O)O)ccc1O	·	–	·	–	–	·
O=C(O)/C=C/c1ccc(O)c(O)c1	–	-30!	–	–	–	–
O=C(/C=C/c1ccc(O)c(O)c1)O[C@H](Cc1ccc(O)c(O)c1)C(=O)O	–	-35	–	·	·	–
CCc1ccc(CNCc2c(C(=O)O)n(Cc3cccc(F)c3)c3cc(OC)ccc23)cc1	·	·	·	·	·	–
Cn1c(=O)c2c(-c3ccc(Br)cc3)n(Cc3ccc(F)cc3)cc2n(C)c1=O	·	·	·	·	·	–
O=[N+]([O-])c1cncn1CCN1CCOCC1	·	·	·	-91	–	·
CC1(C)Cc2c(ccc3ccccc23)C2=C(C(=O)N3CCCC3)C(=O)C(=O)N21	–	-45	–	–	–	–
SMILES	B2AR arrestin	Coupling enz	GALK inh	Giardia kill	uPA generation	miR-21 reporter
C=CCC1(O)C(=O)N2C(=C1C(=O)OCC)c1ccc3ccccc3c1CC2(C)C (stereo unspecified)	–	–	–	–	–	–
c1ccc(-c2cnc(-c3ccccn3)nn2)cc1	·	·	·	?	6.3µM	·
CCOc1ccc(NC(=O)CCc2c(C)nc3cc(-c4ccc(Cl)cc4)nn3c2C)cc1	·	·	·	·	·	–
CCCc1cc(=O)oc2c3c(cc(OCC(=O)N[C@@H](C)C(=O)O)c12)OC(C)(C)CC3	–	–	·	–	–	–
CCCc1cc(=O)oc2c3c(c4c(c12)OC(C)(C)C=C4)OC(C)C(C)C3O (stereo unspecified)	–	–	–	–	1.4µM	–
Cc1cccc(NC(=O)c2ccc(-n3cccn3)c([N+](=O)[O-])c2)c1	–	-33	–	–	–	–
Cc1ccc(/C=C/c2nc3ccccc3c(=O)[nH]2)cc1	–	–	–	-90	?	–
COc1cc(C2C(C(=O)N3CCOCC3)=C(C)NC3=C2C(=O)CCC3)ccc1OC(C)=O (stereo unspecified)	–	-33	–	–	–	–
CCOc1cc(C2C(C(=O)N3CCOCC3)=C(C)NC3=C2C(=O)CCC3)ccc1O (stereo unspecified)	–	–	–	–	–	–
COc1cccc(C2C(C(=O)/C=C/c3ccco3)=C(O)C(=O)N2CCN2CCOCC2)c1 (stereo unspecified)	–	-33	–	–	–	–
O=C1CC(c2ccc(F)cc2)CC2=C1C(c1ccc([N+](=O)[O-])o1)Nc1ccccc1N2 (stereo unspecified)	–	–	–	-90	–	–
COc1cc2[nH]c(=O)n(CCCCCC(=O)N3CCN(c4ccc(Cl)cc4)CC3)c(=O)c2cc1OC	·	·	·	·	·	–
CCCNC1=C(N(C(C)=O)c2cccc(F)c2)C(=O)c2ccccc2C1=O	–	-49	–	–	–	?
O=C(c1ccc(-c2ccccc2)cc1)N1CCN(c2ncccn2)CC1	–	-75	–	–	–	–
O=C(c1ccccc1)N1CCN(c2ncccn2)CC1	–	–	–	–	–	–
Cc1cc2nc(-c3ccc[nH]c3=O)[nH]c2cc1C	–	–	·	-94	0.89µM	?
N#C/C(=C\c1c(Oc2ccc(F)cc2)nc2ccccn2c1=O)c1nc2ccccc2s1	·	·	·	·	·	–
CCC(=O)Oc1ccc(NC(=O)CSCc2ccccc2)cc1	–	–	–	–	10µM	–
CCc1noc2nc(C)n(CC(=O)O)c(=O)c12	·	·	·	·	·	–
O=C(NCCN1CCCCC1)c1ccc(Cn2c(SCc3ccccc3)nc3cccnc32)cc1	·	·	·	·	·	–
CCCN1C(=O)COc2ccc(C(=O)c3ccccc3C(=O)O)cc21	–	–	–	–	–	–
O=C(O)c1ccccc1C(=O)c1ccc2c(c1)N(Cc1cccc(F)c1)C(=O)CO2	–	-42	–	–	–	–
C=CC[C@@](C(C)=O)(C(=O)OC)C(NC(=O)OC)c1ccccc1 (stereo partly specified)	·	–	·	·	·	·
Cc1ccc(-c2nn(CCC(=O)O)cc2/C=C\C(=O)c2ccc(Br)cc2)cc1	–	–	–	–	6.3µM	–
COc1cc(SC)ccc1C(=O)Nc1nc2ccccc2[nH]1	–	–	–	-99	–	?
SMILES	B2AR arrestin	Coupling enz	GALK inh	Giardia kill	uPA generation	miR-21 reporter
O=C(Nc1ccc2ccccc2n1)c1ccccc1Cl	–	–	–	–	?	–
COc1ccc(C(=O)Nc2ccc3ccccc3n2)c(OC)c1OC	–	–	–	?	2.8µM	–
COc1ccccc1C(=O)Nc1nc2ccccc2[nH]1	–	–	?	-84	–	?
COc1ccccc1C(=O)NCCC(=O)Nc1nc2ccccc2[nH]1	–	·	·	–	–	·
CCOC(=O)c1ccc(NC(=O)c2ccc3c(c2)CCN3S(=O)(=O)c2ccc(Cl)cc2)cc1	·	·	·	·	·	–
CCN1c2ccccc2N(C)C1(C)c1ccccc1 (stereo unspecified)	–	-53	–	–	–	?
